Earlier results in patent US11672748B2, “Aqueous hair conditioner compositions containing solubilized anti-dandruff actives” (The Procter & Gamble Company, priority 2020, dated 2023).
Converted amounts (≈) assume the structure as drawn.

Conditions: in water

Structure (SMILES): CC1COCc2cc3c(cc21)C(C)(C)C(C)C3(C)C (stereo not shown) [Galoxolide]
- Solubility in H2O: 0.294 µg/mL (≈ 1.14 µM)
